This is an account of results in patent US6110963A, “Aryl-oxo-acetic acids useful in the treatment of insulin resistance and hyperglycemia” (American Home Products Corporation, priority 1999, dated 2000).

By UniProt entry, the sequences of proteins in these tests, tags left out. Where a name states a change or a piece, a line headed by the entry shows the natural chain unless it says otherwise.
UniProt P18031: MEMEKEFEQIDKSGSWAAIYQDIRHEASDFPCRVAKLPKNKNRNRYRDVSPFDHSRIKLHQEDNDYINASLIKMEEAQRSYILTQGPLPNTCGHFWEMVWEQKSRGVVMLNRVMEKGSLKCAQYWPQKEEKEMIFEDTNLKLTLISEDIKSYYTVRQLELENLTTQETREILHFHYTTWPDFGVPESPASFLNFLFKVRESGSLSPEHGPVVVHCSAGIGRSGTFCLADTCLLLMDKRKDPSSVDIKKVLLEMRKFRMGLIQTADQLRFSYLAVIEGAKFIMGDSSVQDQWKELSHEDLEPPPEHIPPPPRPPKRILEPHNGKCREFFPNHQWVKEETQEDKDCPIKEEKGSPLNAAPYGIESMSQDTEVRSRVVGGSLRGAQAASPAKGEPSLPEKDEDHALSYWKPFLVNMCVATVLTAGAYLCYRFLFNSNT

The target of the test is Human recombinant PTP1B (hPTP1B) (Homo sapiens, UniProt P18031). Put plainly: Inhibition of tri-phosphorylated insulin receptor dodecaphosphopeptide dephosphorylation by hPTP1B. It counts as biochemical. The note with it: malachite green phosphate detection.

What is called IC50 is the concentration needed to halve the response being measured. As to Ammonium molybdate tetrahydrate, the IC50 was determined as 8.7 µM.
